Experimental data from PubChem BioAssay AID2776 (Johns Hopkins Ion Channel Center, 2010).
The list shows a part of the results, in another mix than the full data. The source made the active and inactive calls.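 Rule for the calls: active = compounds whose fluorescence signal differed from control wells by over 3 SD, either direction, in both duplicate plates; inactive = the rest.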

Protein sequences, listed by entry. Tags and fused reporters are not part of them.
UniProt Q9QUQ5, whole entry: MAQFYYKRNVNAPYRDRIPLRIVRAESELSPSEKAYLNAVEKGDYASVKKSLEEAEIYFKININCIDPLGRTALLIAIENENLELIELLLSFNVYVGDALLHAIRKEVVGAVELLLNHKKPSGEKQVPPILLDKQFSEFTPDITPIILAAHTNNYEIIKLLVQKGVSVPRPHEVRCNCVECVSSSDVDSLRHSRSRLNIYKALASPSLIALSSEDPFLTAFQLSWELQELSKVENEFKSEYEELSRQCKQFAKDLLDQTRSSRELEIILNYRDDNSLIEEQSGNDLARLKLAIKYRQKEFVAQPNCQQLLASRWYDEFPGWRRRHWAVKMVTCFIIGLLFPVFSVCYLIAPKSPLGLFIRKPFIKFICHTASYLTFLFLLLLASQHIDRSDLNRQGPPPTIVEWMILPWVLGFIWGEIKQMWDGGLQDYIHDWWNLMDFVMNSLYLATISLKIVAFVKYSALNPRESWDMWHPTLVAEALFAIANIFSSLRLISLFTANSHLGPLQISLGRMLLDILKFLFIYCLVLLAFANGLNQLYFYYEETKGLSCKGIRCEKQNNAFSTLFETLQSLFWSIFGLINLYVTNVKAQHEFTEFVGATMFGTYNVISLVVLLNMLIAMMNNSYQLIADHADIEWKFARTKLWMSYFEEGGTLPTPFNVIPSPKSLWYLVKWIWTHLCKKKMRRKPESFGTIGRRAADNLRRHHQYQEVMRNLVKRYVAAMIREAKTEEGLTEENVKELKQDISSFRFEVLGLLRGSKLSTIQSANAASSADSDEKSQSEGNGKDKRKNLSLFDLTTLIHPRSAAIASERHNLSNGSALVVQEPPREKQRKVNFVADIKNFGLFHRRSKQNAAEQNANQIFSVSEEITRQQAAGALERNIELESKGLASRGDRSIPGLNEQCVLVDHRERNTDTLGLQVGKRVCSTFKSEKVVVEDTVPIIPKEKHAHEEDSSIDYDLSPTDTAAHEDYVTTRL

Molecular target: Short transient receptor potential channel 4 (Mus musculus) (UniProt Q9QUQ5)
Assay: DAMGO-gated TRPC4 membrane potential modulation – cell-based, second specificity screen, HEK293 TRPC4/mu-opioid, selectivity assay for TRPC6 inhibitor project, confirmation (AID 2776)
Conditions: HEK293 TRPC4/MOR, membrane potential dye fluorescence; at 10 µM; channel activated by saturating DAMGO dose

O=C(OC1CN2CCC1CC2)C1c2ccccc2Oc2ccccc21 (configuration not stated)
outcome: inactive

CCC(CO)(C(=O)OC1CN2CCC1CC2)c1ccccc1 (configuration not stated)
outcome: inactive
